{
  "source": "patent US20150362491A1",
  "about": "“METHODS AND ASSAYS RELATING TO RNF216” (THE GENERAL HOSPITAL CORPORATION, priority 2013, published 2015)",
  "system": "gonadal stimulation",
  "experiment": "direct gonadal stimulation with human chorionic gonadotropin",
  "assay_type": "in vivo",
  "conditions": "Subject 8; human chorionic gonadotropin treatment",
  "data": [
    {"substance": "human chorionic gonadotropin: hormone used for direct gonadal stimulation", "values": [
      {"measurement": "testosterone", "result": 459, "unit": "ng/dL"}
    ]}
  ]
}
